What was measured:
[1] = target: Amine oxidase [flavin-containing] A (Homo sapiens, UniProt P21397); assay: Inhibition of human recombinant MAOA using kynuramine as substrate preincubated for 30 mins followed by substrate addition
Homo sapiens = organism: Homo sapiens; assay: Selectivity index, ratio of IC50 for human recombinant MAOB to IC50 for human recombinant MAOA
[2] = target: T1, Amine oxidase [flavin-containing] B (Homo sapiens, UniProt P27338); assay: Inhibition of human recombinant MAOB using benzylamine as substrate preincubated for 30 mins followed by substrate addition
[3] = target: T1, Amine oxidase [flavin-containing] B; assay: Competitive inhibition of human recombinant MAOB using 0.06 to […] benzylamine as substrate preincubated for 30 mins followed by substrate addition by Lineweaver-Burk plot

Amino acid sequences for entries named in this document (tags omitted).
UniProt P21397, whole entry: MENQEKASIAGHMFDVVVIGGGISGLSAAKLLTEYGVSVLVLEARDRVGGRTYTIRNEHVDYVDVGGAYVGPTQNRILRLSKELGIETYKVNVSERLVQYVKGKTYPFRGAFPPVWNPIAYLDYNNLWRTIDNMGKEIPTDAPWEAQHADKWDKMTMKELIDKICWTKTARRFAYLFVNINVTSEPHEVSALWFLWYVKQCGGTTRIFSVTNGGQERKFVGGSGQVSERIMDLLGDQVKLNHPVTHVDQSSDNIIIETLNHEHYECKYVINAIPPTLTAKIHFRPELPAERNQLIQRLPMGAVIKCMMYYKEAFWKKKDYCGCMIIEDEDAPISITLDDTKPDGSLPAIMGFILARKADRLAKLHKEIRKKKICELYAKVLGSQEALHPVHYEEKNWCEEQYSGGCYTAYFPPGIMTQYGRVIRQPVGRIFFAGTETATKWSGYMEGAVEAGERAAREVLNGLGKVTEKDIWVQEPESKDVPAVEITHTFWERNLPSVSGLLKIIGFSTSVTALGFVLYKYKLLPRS
UniProt P27338, whole entry: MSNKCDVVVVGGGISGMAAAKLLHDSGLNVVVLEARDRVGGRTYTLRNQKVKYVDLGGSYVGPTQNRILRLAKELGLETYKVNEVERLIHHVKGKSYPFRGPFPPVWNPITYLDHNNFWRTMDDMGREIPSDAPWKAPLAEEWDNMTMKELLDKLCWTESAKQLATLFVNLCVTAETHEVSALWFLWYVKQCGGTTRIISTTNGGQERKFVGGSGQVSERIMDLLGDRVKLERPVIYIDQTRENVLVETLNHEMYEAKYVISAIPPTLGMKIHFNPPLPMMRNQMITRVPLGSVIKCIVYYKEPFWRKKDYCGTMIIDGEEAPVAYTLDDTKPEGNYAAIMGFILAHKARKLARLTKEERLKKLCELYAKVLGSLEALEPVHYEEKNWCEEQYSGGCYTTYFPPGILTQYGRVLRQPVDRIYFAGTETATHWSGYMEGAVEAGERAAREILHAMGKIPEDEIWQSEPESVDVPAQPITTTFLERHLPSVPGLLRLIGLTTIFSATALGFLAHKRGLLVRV

Row | Structure (SMILES) | IC50 [1] [nM] | Ratio IC50 (Homo sapiens) | IC50 [2] [nM] | Ki [3] [nM]
1 | C#CCN(C)Cc1ccccc1 [PARGYLINE] | > 2000 |  |  | 
2 | O=C1/C(=C/c2ccc(O)cc2)Oc2cc(O)ccc21 |  | 9.4 | 2450 | 510
